From PubChem BioAssay AID2825 (Sanford-Burnham Center for Chemical Genomics, 2010)
The entries are a selection whose mix differs from that of the whole data set. Calls of active or inactive are those of the source.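 How the source made its calls: active means inhibition of 50% or more; inactive means inhibition below 50%.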

Experiment: NALP3 inflammasome inhibitors in reconstituted yeast, primary screen, luminescence, uHTS (AID 2825);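 further: plate controls were induced DMSO wells for no effect and uninduced yeast grown without galactose for full effect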
Conditions: Yeast reconstituted NLRP3/ASC/caspase-1, beta-gal luminescence, 24 h; at 10 µM; stronger effect = higher value

Row | SMILES | inhibition
1 | CCC(=O)N(c1ccccc1)C1(COC)CCN(CCc2cccs2)CC1 | inactive: 9.29%
2 | CCC(=O)N(c1ccccc1)C1(COC)CCN(CCn2nnn(CC)c2=O)CC1 | inactive: 5.62%
